Laboratory results reported in patent publication US12103919B2, “3-(5-oxy)-1-oxoisoindolin-2-yl)piperidine-2,6-dione derivatives and uses thereof” (NOVARTIS AG, priority 2021, dated 2024).

Chains of the proteins cited; added tags and fusions are not shown.
UniProt O95785, whole entry: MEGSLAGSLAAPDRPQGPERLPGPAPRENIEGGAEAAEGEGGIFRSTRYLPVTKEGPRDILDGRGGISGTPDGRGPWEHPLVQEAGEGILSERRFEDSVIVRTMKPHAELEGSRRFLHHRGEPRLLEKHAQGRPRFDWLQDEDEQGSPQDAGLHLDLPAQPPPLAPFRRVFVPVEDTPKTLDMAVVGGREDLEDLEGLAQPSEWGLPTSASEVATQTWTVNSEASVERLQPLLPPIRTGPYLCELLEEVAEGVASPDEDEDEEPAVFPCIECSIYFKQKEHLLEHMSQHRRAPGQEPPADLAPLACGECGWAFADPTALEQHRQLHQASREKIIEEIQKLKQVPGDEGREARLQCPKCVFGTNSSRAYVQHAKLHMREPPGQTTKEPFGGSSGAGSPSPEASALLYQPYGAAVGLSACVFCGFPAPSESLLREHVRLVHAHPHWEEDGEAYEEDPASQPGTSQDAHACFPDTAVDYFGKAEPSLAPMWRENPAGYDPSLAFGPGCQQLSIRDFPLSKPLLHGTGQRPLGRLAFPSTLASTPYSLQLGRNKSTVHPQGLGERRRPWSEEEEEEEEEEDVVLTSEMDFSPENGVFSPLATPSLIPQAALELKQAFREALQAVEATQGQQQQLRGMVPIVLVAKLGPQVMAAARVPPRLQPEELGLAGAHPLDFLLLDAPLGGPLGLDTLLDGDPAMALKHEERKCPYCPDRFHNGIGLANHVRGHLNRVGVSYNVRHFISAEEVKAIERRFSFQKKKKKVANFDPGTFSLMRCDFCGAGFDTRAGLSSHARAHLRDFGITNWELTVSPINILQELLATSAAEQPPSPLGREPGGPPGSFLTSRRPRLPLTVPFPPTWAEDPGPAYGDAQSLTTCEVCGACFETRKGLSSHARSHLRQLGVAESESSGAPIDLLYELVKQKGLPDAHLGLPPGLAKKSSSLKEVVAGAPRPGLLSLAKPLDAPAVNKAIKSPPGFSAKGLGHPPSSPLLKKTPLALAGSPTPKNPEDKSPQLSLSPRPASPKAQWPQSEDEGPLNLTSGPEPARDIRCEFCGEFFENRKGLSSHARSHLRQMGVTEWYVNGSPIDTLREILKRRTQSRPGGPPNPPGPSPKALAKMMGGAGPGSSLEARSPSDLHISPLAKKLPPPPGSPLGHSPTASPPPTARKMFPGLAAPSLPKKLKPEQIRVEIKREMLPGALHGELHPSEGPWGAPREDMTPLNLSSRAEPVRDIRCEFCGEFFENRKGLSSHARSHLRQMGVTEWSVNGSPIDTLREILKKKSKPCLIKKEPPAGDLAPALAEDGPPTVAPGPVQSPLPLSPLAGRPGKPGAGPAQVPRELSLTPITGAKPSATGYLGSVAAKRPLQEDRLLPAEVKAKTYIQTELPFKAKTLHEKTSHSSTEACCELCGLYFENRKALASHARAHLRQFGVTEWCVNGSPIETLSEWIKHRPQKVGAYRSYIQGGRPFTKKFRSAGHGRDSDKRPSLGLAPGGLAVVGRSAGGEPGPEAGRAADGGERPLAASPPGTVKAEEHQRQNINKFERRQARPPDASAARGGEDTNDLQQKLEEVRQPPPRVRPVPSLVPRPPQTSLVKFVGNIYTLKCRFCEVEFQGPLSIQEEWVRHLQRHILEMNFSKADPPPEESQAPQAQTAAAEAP
UniProt Q96SW2, whole entry: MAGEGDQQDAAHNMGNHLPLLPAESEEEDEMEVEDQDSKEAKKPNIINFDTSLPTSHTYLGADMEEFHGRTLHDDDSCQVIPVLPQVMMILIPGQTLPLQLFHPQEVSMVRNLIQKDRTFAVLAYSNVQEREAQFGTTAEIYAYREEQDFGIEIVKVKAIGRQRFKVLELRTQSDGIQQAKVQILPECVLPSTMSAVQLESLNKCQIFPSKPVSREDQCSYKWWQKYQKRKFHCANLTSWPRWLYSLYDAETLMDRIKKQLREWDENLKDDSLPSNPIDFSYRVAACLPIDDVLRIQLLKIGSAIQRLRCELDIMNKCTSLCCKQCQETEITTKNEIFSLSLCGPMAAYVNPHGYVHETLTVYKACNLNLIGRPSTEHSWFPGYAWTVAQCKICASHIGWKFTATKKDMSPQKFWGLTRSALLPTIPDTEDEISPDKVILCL
UniProt Q16531, whole entry partner: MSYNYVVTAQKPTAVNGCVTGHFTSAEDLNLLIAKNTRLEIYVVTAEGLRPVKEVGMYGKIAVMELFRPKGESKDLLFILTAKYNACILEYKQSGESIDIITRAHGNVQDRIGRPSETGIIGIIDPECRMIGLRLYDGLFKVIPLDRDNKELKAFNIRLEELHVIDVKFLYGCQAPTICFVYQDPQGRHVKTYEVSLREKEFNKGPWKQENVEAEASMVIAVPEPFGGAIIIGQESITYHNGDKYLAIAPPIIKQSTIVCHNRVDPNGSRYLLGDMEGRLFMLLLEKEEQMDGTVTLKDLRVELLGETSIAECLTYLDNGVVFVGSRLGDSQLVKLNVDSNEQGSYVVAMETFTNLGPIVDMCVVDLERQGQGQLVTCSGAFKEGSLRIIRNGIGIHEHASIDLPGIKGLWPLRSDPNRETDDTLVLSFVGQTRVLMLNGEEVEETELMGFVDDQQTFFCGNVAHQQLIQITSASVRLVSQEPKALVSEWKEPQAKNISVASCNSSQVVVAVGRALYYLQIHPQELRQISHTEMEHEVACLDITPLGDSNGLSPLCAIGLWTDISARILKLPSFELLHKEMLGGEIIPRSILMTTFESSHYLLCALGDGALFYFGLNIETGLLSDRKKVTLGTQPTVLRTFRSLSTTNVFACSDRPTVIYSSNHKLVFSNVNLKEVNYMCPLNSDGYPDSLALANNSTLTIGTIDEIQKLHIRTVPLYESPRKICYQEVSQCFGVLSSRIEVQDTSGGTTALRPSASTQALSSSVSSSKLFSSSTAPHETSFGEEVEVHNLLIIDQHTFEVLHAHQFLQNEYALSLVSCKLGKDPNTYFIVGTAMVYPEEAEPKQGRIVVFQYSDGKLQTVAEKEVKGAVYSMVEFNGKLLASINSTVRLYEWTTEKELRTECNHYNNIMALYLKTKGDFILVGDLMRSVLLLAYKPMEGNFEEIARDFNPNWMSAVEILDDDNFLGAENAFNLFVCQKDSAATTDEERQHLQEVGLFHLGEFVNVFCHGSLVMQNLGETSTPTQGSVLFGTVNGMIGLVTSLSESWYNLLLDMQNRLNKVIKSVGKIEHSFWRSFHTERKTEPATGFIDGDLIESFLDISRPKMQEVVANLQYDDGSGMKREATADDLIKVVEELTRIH

Target: WIZ (Homo sapiens, UniProt O95785+Q96SW2)
Assay: Quantification of WIZ protein levels in HiBit tag fusion protein assay (293T cells)
Type: cell-based
Conditions: for WIZ Amax: DMSO-normalized, curve-fitted percentage of WIZ-HiBit remaining at 25 uM; for % degradation of WIZ (100 − Amax): at 25 uM; for AC50: read-out: WIZ AC50, WIZ HiBit assay in 293T cells, about 18 hours, 10-point 5-fold dilution, top 25 μM

| WIZ Amax | % degradation of WIZ (100 − Amax) | AC50 | Compound |
| --- | --- | --- | --- |
| 67.92% | 32.08% | 44 nM | CCN1CC(C)CC(Oc2ccc3c(c2)CN(C2CCC(=O)NC2=O)C3=O)C1 (single isomer, unassigned) [45B] |
| 48.09% | 51.91% | 51 nM | CCN1CC(C)CC(Oc2ccc3c(c2)CN(C2CCC(=O)NC2=O)C3=O)C1 (single isomer, unassigned) [45D] |
| 110.99% | – | > 25000 nM | CCN1CCC(C)C(Oc2ccc3c(c2)CN(C2CCC(=O)NC2=O)C3=O)C1 (single isomer, unassigned) [46B] |
| 105.03% | – | > 25000 nM | CCN1CCC(C)C(Oc2ccc3c(c2)CN(C2CCC(=O)NC2=O)C3=O)C1 (single isomer, unassigned) [46C] |
| 48.89% | 51.11% | 40 nM | CCN1CC(C)CC(Oc2ccc3c(c2)CN(C2CCC(=O)NC2=O)C3=O)C1 (single isomer, unassigned) [45A] |
| 60.81% | 39.19% | 8.6 nM | CCN1CCC(C)C(Oc2ccc3c(c2)CN(C2CCC(=O)NC2=O)C3=O)C1 (single isomer, unassigned) [35A] |
| 67.54% | 32.46% | 6.1 nM | CCN1CCC(C)C(Oc2ccc3c(c2)CN(C2CCC(=O)NC2=O)C3=O)C1 (single isomer, unassigned) [35B] |
| 110.99% | – | > 25000 nM | CCN1CCC(C)C(Oc2ccc3c(c2)CN(C2CCC(=O)NC2=O)C3=O)C1 (single isomer, unassigned) [46D] |
| 62.63% | 37.37% | 6.3 nM | CCN1CCC(C)C(Oc2ccc3c(c2)CN(C2CCC(=O)NC2=O)C3=O)C1 (single isomer, unassigned) [35D] |
| 109.66% | – | > 25000 nM | CCN1CCC(C)C(Oc2ccc3c(c2)CN(C2CCC(=O)NC2=O)C3=O)C1 (single isomer, unassigned) [46A] |
| 69.59% | 30.41% | 11 nM | CCN1CCC(C)C(Oc2ccc3c(c2)CN(C2CCC(=O)NC2=O)C3=O)C1 (single isomer, unassigned) [35C] |
| 66.38% | 33.62% | 49 nM | CCN1CC(C)CC(Oc2ccc3c(c2)CN(C2CCC(=O)NC2=O)C3=O)C1 (single isomer, unassigned) [45C] |
